Where a name gives a salt, the structure may show the parent alone.

In the first test the test system is ATGL-KO iPSCs. As to the kind of experiment: High throughput iPSC chemical screening, Oil Red O (ORO) lipid accumulation. As to Z-score: test concentration or dose not given here. The following applies: glycolytic switch compounds.
Thiethylperazine malate: the “Rank in normalized ORO score from screen” value turned out to be 118.

The same test, now with this note: normalized ORO level vs DMSO-treated cells; compound present during 7 days differentiation, 96-well; negative = decrease in lipid accumulation.
Consider `C=C[C@H]1CN2CC[C@H]1C[C@H]2[C@H](O)c1ccnc2ccccc12` [(−)-Cinchonidine], for which the Z-score is listed as −1.2185.

The compound `c1ccc(CN(CC2=NCCN2)c2ccccc2)cc1` [Antazoline hydrochloride] had a Z-score of −1.2181.

The compound `CC(=O)N(CC(O)CN(C(C)=O)c1c(I)c(C(=O)NCC(O)CO)c(I)c(C(=O)NCC(O)CO)c1I)c1c(I)c(C(=O)NCC(O)CO)c(I)c(C(=O)NCC(O)CO)c1I` (stereo not drawn) [Iodixanol] gave a Z-score of −1.2199.

Pirlindole mesylate displayed a Z-score of −0.619.

On to Thiethylperazine malate, for which the Z-score was −1.2229.
